From patent publication US7132438B2, “Benzimidazole derivatives” (priority 2001, dated 2006) come the findings set out here.

By UniProt entry, the sequences of proteins in these tests, tags left out.
UniProt P51617, whole entry: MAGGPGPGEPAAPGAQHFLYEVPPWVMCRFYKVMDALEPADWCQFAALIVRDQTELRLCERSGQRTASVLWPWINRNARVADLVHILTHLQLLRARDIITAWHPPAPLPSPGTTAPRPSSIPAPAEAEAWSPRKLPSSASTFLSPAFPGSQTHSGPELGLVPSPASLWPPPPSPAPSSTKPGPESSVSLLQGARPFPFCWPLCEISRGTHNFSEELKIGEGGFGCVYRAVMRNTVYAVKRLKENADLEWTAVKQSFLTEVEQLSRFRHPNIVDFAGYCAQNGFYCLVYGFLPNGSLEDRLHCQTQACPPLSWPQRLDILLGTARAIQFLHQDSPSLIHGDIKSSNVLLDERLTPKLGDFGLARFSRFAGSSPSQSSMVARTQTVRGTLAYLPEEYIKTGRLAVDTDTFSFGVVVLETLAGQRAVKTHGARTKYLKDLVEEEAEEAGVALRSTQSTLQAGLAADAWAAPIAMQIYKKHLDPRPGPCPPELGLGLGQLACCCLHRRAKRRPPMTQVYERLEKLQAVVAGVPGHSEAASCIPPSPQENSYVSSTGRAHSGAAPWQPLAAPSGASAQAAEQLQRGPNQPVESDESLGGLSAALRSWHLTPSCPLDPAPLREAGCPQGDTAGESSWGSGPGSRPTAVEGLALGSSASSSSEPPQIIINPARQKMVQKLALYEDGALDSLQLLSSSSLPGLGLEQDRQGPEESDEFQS
UniProt Q9NWZ3, whole entry: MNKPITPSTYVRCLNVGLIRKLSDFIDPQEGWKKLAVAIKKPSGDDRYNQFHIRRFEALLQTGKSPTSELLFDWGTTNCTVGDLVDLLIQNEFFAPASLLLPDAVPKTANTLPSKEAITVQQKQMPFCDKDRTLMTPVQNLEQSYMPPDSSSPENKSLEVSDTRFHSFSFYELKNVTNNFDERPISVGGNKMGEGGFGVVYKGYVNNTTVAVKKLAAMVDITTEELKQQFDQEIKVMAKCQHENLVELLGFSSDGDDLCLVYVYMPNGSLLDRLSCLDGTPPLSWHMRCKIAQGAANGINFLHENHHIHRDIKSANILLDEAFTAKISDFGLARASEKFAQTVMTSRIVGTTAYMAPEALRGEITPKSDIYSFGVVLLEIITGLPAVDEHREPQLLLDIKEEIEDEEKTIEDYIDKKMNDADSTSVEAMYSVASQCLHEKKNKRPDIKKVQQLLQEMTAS

Each structure is given as a SMILES string.

One test deals with IRAK-1 (Homo sapiens, UniProt P51617). The test can be described thus: Enzymatic inhibition assay, IRAK-1 kinase activity (chemiluminescent ELISA). It is filed as biochemical. The following applies: read-out: IC50 values (μM) IRAK-1; recombinant full-length IRAK-1, 3 μM ATP, 60 min room temperature. (ELISA stands for enzyme-linked immunosorbent assay.)
By IC50 is commonly meant the concentration needed to halve the response being measured. On to `O=C(Nc1nc2cc(F)ccc2n1CCCO)c1cccc([N+](=O)[O-])c1`, for which the IC50 is under 10 µM. Same read-out and setting: under `Cc1ccc2c(c1)nc(NC(=O)c1cccc([N+](=O)[O-])c1)n2CCCCO` stands under 10 µM. The same measure, in the same setting: under `O=C(Nc1nc2cc(F)ccc2n1CCCCO)c1cccc([N+](=O)[O-])c1` stands under 10 µM; under `CNCc1ccc2c(c1)nc(NC(=O)c1cccc([N+](=O)[O-])c1)n2CCCO`, under 10 µM.

On to `O=C(Nc1nc2cc(O)ccc2n1CCCO)c1cccc([N+](=O)[O-])c1`, for which the IC50 is under 10 µM. Same read-out and setting: then `N#Cc1cccc(C(=O)Nc2nc3ccccc3n2CCCO)c1`, with under 10 µM; and `CN(C)Cc1ccc2c(c1)nc(NC(=O)c1cccc([N+](=O)[O-])c1)n2CCCO`, with under 10 µM; and `N#Cc1cccc(S(=O)(=O)Nc2nc3ccccc3[nH]2)c1`, with 10 to 30 µM.

As to `O=C(Nc1nc2cc(CO)ccc2n1[C@H]1CC[C@H](O)CC1)c1cccc([N+](=O)[O-])c1` (single isomer, unassigned), the IC50 is under 10 µM.

Consider `COc1ccc2c(c1)nc(NC(=O)c1cccc([N+](=O)[O-])c1)n2CCCCO`, for which the IC50 is under 10 µM.

As to `O=C(Nc1nc2ccc(F)cc2n1CCCO)c1cccc([N+](=O)[O-])c1`, the half-maximal inhibitory concentration (IC50) was under 10 µM. On the same count and under the same terms, then `O=C(Nc1nc2cc(F)c(F)cc2n1CCCCO)c1cccc([N+](=O)[O-])c1`, with under 10 µM.

The next test concerns the target IRAK-4 (Homo sapiens, UniProt Q9NWZ3). The experiment in a line: Enzymatic inhibition assay, IRAK-4 kinase activity (chemiluminescent ELISA). The following applies: read-out: IC50 values (μM) IRAK-4; recombinant full-length IRAK-4, 10 μM ATP, 60 min room temperature.
On to `O=C(Nc1nc2cc(F)ccc2n1CCCO)c1cccc([N+](=O)[O-])c1`, for which the IC50 is under 10 µM.

Regarding `Cc1ccc2c(c1)nc(NC(=O)c1cccc([N+](=O)[O-])c1)n2CCCCO`, the IC50 was under 10 µM.

Regarding `O=C(Nc1nc2cc(F)ccc2n1CCCCO)c1cccc([N+](=O)[O-])c1`, the IC50 was under 10 µM.

As for `CNCc1ccc2c(c1)nc(NC(=O)c1cccc([N+](=O)[O-])c1)n2CCCO`, the IC50 was under 10 µM. The same measure, in the same setting: then `O=C(Nc1nc2cc(O)ccc2n1CCCO)c1cccc([N+](=O)[O-])c1`, with under 10 µM.

For the molecule `N#Cc1cccc(C(=O)Nc2nc3ccccc3n2CCCO)c1`, the IC50 is under 10 µM. On the same count and under the same terms, then `CN(C)Cc1ccc2c(c1)nc(NC(=O)c1cccc([N+](=O)[O-])c1)n2CCCO`, with under 10 µM. The same measure, in the same setting: under `O=C(Nc1nc2cc(CO)ccc2n1[C@H]1CC[C@H](O)CC1)c1cccc([N+](=O)[O-])c1` (single isomer, unassigned) stands under 10 µM; under `COc1ccc2c(c1)nc(NC(=O)c1cccc([N+](=O)[O-])c1)n2CCCCO`, under 10 µM.

As for `O=C(Nc1nc2ccc(F)cc2n1CCCO)c1cccc([N+](=O)[O-])c1`, the IC50 is under 10 µM.

Regarding `O=C(Nc1nc2cc(F)c(F)cc2n1CCCCO)c1cccc([N+](=O)[O-])c1`, the IC50 was under 10 µM.
